Values of other authors in patent US8476466B2 (priority 2008, dated 2013).

System: mice

Q: Which “50% lethal dose (LD50, in mice)” value does the source give for trimethylarsine oxide here?
A: Its value is 10600 mg/kg.

Q: With arsenocholine as the substance, how does the “50% lethal dose (LD50, in mice)” value read?
A: Its value is 6000 mg/kg.

Q: With arsenious acid as the substance, how does the “50% lethal dose (LD50, in mice)” value read?
A: The value was 4.5 mg/kg.
